{"source": "patent US5084454A", "about": "“2-(piperidinylmethyl)-4-phenyl-2,3-dihydro-4H-1,4-benzoxazines useful as antipsychotics” (Farmitalia Carlo Erba S.r.l., priority 1988, dated 1992)", "tested_on": "cataleptic activity in the mouse", "test": "catalepsy, \"bar test\" in the mouse", "conditions": "oral, ratio"}
{"smiles": "O=C1NCN(c2ccccc2)C12CCN(CC1CN(c3ccc(F)cc3)c3ccccc3O1)CC2", "note": "(stereo not shown) [FCE 25676, 2-(1-phenyl-1,3,8-triazaspiro[4,5]decan-4-one-8-yl)-methyl-4-(4-fluorophenyl)-2,3-dihydro-4H-1,4-benzoxazine]", "values": [{"measurement": "(ED50 Catalepsy / ED50 Climbing)", "value": 15.3}]}
